The values below come from patent US6596878B2, “Methods and compositions for inhibiting cell proliferative disorders” (Yissum Research & Development Company of the Hebrew …, priority 1994, dated 2003).

Sequences of proteins named here, by UniProt entry; tags and fusion partners are left off. Residues count along the entry.
UniProt P00533, 25-1210: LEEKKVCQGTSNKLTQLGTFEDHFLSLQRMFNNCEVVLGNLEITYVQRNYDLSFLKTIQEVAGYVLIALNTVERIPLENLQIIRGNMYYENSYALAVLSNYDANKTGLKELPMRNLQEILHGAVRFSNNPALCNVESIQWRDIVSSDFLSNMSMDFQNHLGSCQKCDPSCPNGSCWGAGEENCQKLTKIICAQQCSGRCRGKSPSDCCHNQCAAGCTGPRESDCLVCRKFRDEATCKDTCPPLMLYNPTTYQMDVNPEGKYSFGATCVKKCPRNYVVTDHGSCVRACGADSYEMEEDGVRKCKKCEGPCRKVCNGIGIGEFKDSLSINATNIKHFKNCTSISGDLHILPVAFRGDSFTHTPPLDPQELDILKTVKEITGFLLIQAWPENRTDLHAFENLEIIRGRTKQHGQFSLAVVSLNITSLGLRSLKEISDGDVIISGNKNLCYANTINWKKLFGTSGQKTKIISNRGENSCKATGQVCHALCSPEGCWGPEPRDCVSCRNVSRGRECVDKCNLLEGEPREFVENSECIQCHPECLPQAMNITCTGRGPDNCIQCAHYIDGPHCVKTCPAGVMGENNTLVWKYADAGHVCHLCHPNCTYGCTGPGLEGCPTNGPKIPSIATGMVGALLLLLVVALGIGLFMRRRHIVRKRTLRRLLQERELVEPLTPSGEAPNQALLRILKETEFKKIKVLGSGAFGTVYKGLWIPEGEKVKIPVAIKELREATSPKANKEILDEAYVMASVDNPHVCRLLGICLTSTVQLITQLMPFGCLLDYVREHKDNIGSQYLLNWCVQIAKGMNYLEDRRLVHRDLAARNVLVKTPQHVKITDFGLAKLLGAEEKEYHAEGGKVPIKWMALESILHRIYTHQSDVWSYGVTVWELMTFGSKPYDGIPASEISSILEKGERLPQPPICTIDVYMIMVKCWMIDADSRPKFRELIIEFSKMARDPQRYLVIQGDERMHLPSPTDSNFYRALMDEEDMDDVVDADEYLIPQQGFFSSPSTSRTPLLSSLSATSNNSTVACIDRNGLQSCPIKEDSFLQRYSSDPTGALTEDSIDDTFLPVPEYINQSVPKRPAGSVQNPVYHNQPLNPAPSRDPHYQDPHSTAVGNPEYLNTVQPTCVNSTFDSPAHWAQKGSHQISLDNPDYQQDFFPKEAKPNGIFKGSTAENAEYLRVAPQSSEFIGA

Read-outs that look alike come from different tables or passages of the source.

The assay has as its target T1, human EGF receptor (Homo sapiens, UniProt P00533).
T1 construct: expressed in transfected cells; host or cells: NIH3T3 clone C7 (EGFR/C7; mouse fibroblasts)
Nature of the assay: EGF-receptor whole cell kinase assay (EGFR-3T3). It is filed as cell-based. The source says:
This example illustrates the ability of the exemplary compounds to inhibit receptor tyrosine kinases, such as HER2 and/or EGFR. The following target cells were used for cellular kinaseassays: NIH3T3 clone C7 (Honegger et al., supra) engineered to over-express human EGF receptor; NIH3T3 cells engineered to over-express a chimeric receptor containing the EGFR extracellular domain and the HER2 intracellular kinase domain; the human mammary carcinoma line BT474 (ATCC HTB2) expressing HER2; and the human glioblastoma line U1242 that expresses PDGFR-β. Growth assays were carried out using human mammary epithelial SKBR3 (ATCC HTB30) cells, SKOV3 (ATCC HTB77) human ovarian cancer cell line, A431 cells, MCF7 human breast carcinoma cells, MCF7 cells overexpress the HER2 kinase (MCF7-HER2), NIH3T3 cells, and NIH3T3 cells overexpressing the HER2 kinase (3T3-HER2).
Unless otherwise stated the effect of various compounds on receptor tyrosine kinases were assayed as described in this section.
1. EGF-receptor Whole Cell Kinase Assay
EGFR kinase activity (EGFR-3T3 assay) in whole cells was measured as described below:
The following protocol was used:
A. Coat ELISA plates (Corning, 96 well, Cat. #25805-96) with 05-101 antibody at 0.5 μg per well in PBS, 150 μl final volume/well, and store overnight at 4° C. Coated plates are good for up to 10 days when stored at 4° C. […]

On to `COc1cc2ncnc(Nc3cccc(Cl)c3)c2cc1OC` [Compound P13a], for which the IC50 (Table III, cellular kinase assay, class symbol, read-out: EGFR) was below 50000 nM and the IC50 (Table V, read-out: Estimated IC50 Cellular Kinase Assays EGFR (EGF-3T3)) is 3 nM.
